# CycPeptMPDB entries from one study

Source: CycPeptMPDB (Li et al. 2023), which took these values from Taechalertpaisarn et al. 2022, doi:10.1021/acs.jmedchem.2c00010.

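Conditions beyond the assay type are not listed; see the original paper. Other peptides of the study may be missing here. Peptides that the database sets to -10, its floor, are left out.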

PAMPA measures passive passage through an artificial lipid membrane. Caco-2: transport across a human colon carcinoma cell monolayer. Permeability is given as log10 of P in cm/s; higher (less negative) is more permeable. "n/a" marks a cell with nothing listed here.

PAMPA (log10 cm/s) | Caco-2 (log10 cm/s) | compound
n/a | -6.70 | CC(C)C[C@@H]1NC(=O)[C@@H](CC(C)C)NC(=O)[C@H]2CCCN2C(=O)[C@H](CC(C)C)NC(=O)[C@H](CCC(=O)N2CCCC2)NC(=O)[C@@H](CC(C)C)NC1=O
-6.71 | n/a | CC[C@@H]1NC(=O)[C@@H](CC(C)C)NC(=O)[C@H](CC(C)C)NC(=O)[C@@H](CCC(=O)N2CCCC2)NC(=O)[C@H]2CCCN2C(=O)[C@H](CC(C)C)NC1=O
-5.66 | n/a | CC(C)C[C@@H]1NC(=O)[C@@H](CC(C)C)NC(=O)[C@H](CCC(=O)N2CCCC2)NC(=O)[C@@H](CC2CCCCC2)NC(=O)[C@H]2CCCN2C(=O)[C@H](CC(C)C)NC1=O
-6.19 | n/a | CC(C)C[C@@H]1NC(=O)[C@@H](CC(C)C)NC(=O)[C@@H](CCC(=O)N2CCCC2)NC(=O)[C@@H](CC(C)C)NC(=O)[C@H]2CCCN2C(=O)[C@H](CC(C)C)NC1=O
-4.87 | n/a | CC(C)C[C@@H]1NC(=O)[C@H](CCc2ccccc2)NC(=O)[C@@H](CC(C)C)NC(=O)[C@H](CC2CCCCC2)NC(=O)[C@@H](CCC(=O)N2CCCC2)NC(=O)[C@H]2CCCN2C1=O
-5.72 | n/a | COC(=O)CC[C@H]1NC(=O)[C@H]2CCCN2C(=O)[C@H](CC(C)C)NC(=O)[C@H](CC(C)C)NC(=O)[C@@H](CC(C)C)NC(=O)[C@H](CC(C)C)NC1=O
-5.40 | n/a | CC(C)C[C@@H]1NC(=O)[C@H](CCc2ccccc2)NC(=O)[C@@H](CC(C)C)NC(=O)[C@H](CCC(=O)N2CCCC2)NC(=O)[C@@H](CC2CCCCC2)NC(=O)[C@H]2CCCN2C1=O
-5.69 | n/a | CC[C@@H]1NC(=O)[C@@H](CC(C)C)NC(=O)[C@H](CC2CCCCC2)NC(=O)[C@@H](CCC(=O)N2CCCC2)NC(=O)[C@H]2CCCN2C(=O)[C@H](CC(C)C)NC1=O
-6.56 | n/a | CC(C)C[C@@H]1NC(=O)[C@@H](CC(C)C)NC(=O)[C@H](CC(C)C)NC(=O)[C@@H](CC(=O)N(C)C)NC(=O)[C@H]2CCCN2C(=O)[C@H](CC(C)C)NC1=O
-5.89 | n/a | CC(C)C[C@@H]1NC(=O)[C@@H](CC(C)C)NC(=O)[C@H](CC(C)C)NC(=O)[C@@H](CCC(=O)N2CCCC2)NC(=O)[C@H]2CCCN2C(=O)[C@H](CC(C)C)NC1=O
-6.61 | n/a | CC(C)C[C@@H]1NC(=O)[C@H](CCc2ccccc2)NC(=O)[C@@H](CC(C)C)NC(=O)[C@H](CCC(=O)N2CCCC2)NC(=O)[C@@H](C)NC(=O)[C@H]2CCCN2C1=O
-5.43 | n/a | CC(C)C[C@@H]1NC(=O)[C@H](Cc2ccc3ccccc3c2)NC(=O)[C@@H](CC(C)C)NC(=O)[C@H](CCC(=O)N2CCCC2)NC(=O)[C@@H](CC2CCCCC2)NC(=O)[C@H]2CCCN2C1=O
-6.20 | n/a | CC(C)C[C@@H]1NC(=O)[C@H](c2ccccc2)NC(=O)[C@@H](CC(C)C)NC(=O)[C@H](CCC(=O)N2CCCC2)NC(=O)[C@@H](CC(C)C)NC(=O)[C@H]2CCCN2C1=O
-6.83 | n/a | CC(C)C[C@@H]1NC(=O)[C@H](c2ccccc2)NC(=O)[C@@H](CC(C)C)NC(=O)[C@H](CCC(=O)N2CCCC2)NC(=O)[C@@H](C)NC(=O)[C@H]2CCCN2C1=O
-7.50 | n/a | CC(C)C[C@@H]1NC(=O)[C@@H](CC(C)C)NC(=O)[C@H](CCC(=O)N2CCCC2)NC(=O)[C@@H](C)NC(=O)[C@H]2CCCN2C(=O)[C@H](CC(C)C)NC1=O
-6.29 | n/a | CC(C)C[C@@H]1NC(=O)[C@H](Cc2ccc3ccccc3c2)NC(=O)[C@@H](CC(C)C)NC(=O)[C@H](CCC(=O)N2CCCC2)NC(=O)[C@@H](C)NC(=O)[C@H]2CCCN2C1=O

The first 3 entries again:

compound | PAMPA (log10 cm/s) | Caco-2 (log10 cm/s)
CC(C)C[C@@H]1NC(=O)[C@@H](CC(C)C)NC(=O)[C@H]2CCCN2C(=O)[C@H](CC(C)C)NC(=O)[C@H](CCC(=O)N2CCCC2)NC(=O)[C@@H](CC(C)C)NC1=O | n/a | -6.70
CC[C@@H]1NC(=O)[C@@H](CC(C)C)NC(=O)[C@H](CC(C)C)NC(=O)[C@@H](CCC(=O)N2CCCC2)NC(=O)[C@H]2CCCN2C(=O)[C@H](CC(C)C)NC1=O | -6.71 | n/a
CC(C)C[C@@H]1NC(=O)[C@@H](CC(C)C)NC(=O)[C@H](CCC(=O)N2CCCC2)NC(=O)[C@@H](CC2CCCCC2)NC(=O)[C@H]2CCCN2C(=O)[C@H](CC(C)C)NC1=O | -5.66 | n/a